According to patent publication US12507703B2, “Methods, devices and compositions for preserving human milk” (The Trustees of Princeton University, priority 2023, dated 2025):

System: lipase
Test: Lipase/lipolysis assay (EnzChek Lipase Substrate, quenched BODIPY-fatty acid conjugate) on stored human milk
[1] = compound added to fresh human milk, stored 1 week at −20° C., thawed at room temperature, RFU <400 considered a hit
[2] = Food-Sourced Compound Library compound added to fresh human milk, stored 1 week at −20° C., thawed at room temperature, RFU <400 considered a hit
[3] = Food Additive Library compound added to fresh human milk, stored 1 week at −20° C., thawed at room temperature, RFU of <400 considered a hit
[4] = Biolog PM2a compound added to fresh human milk, stored 1 week at −20° C., RFU <400 = hit
[5] = Biolog PM4 compound added to fresh human milk, stored 1 week at −20° C., RFU <400 = hit
[6] = Biolog PM5 compound added to fresh human milk, stored 1 week at −20° C., RFU <400 = hit
[7] = Biolog PM1 compound added to fresh human milk, stored 1 week at −20° C., RFU <400 = hit

## C[C@@H]1O[C@@H](c2c(O)c([C@@H]3O[C@H](CO)[C@@H](O)[C@H](O)[C@H]3O)c(O)c3c(=O)cc(-c4ccc(O)cc4)oc23)[C@H](O)[C@H](O)[C@H]1O [Violanthin]
[1]
  Lipase (RFU): 684.1202 RFU

## Cc1ccc(C(C)C)cc2c(C)ccc1-2 [Guaiazulene]
[2]
  Lipase (RFU): 999.8541 RFU

## CCCCCCCC/C=C\CCCCCCCC(N)=O [Oleamide]
[2]
  Lipase (RFU): 1128.919 RFU

## CC1=CC(=O)NS(=O)(=O)O1 [Acesulfame (potassium)]
[3]
  Lipase (RFU): 1443.891 RFU

## NC(CCS)C(=O)O (racemic) [DL-Homocysteine]
[2]
  Lipase (RFU): 816.4846 RFU

## O=CC[C@H](O)[C@H](O)CO [2-Deoxy-D-Ribose]
[4]
  Lipase (RFU): 844.3126 RFU

## O=C(O)CCCC[C@@H]1SC[C@@H]2NC(=O)N[C@@H]21 [Biotin]
[3]
  Lipase (RFU): 1165.648 RFU
[1]
  Lipase (RFU): 1070.542 RFU

## CCCCCCCCCCCCCCCCCC(=O)O [Stearic acid]
[3]
  Lipase (RFU): 808.9347 RFU

## CC(C)C(=O)C(=O)O [3-Methyl-2-oxobutanoic acid]
[1]
  Lipase (RFU): 878.2265 RFU

## C[C@H](NC(=O)CC[C@H](N)C(=O)O)C(=O)O [γ-L-Glutamyl-L-alanine]
[2]
  Lipase (RFU): 985.9057 RFU

## O=C(O)Cc1c[nH]c2ccc(O)cc12 [5-Hydroxyindole-3-acetic acid]
[2]
  Lipase (RFU): 1051.332 RFU

## CC(C(=O)O)c1ccccc1 (stereo not shown) [2-Phenylpropionic acid]
[1]
  Lipase (RFU): 1253.073 RFU

## CNCC(O)c1ccc(O)c(OC)c1 (stereo not shown) [Metanephrine]
[2]
  Lipase (RFU): 993.9043 RFU

## CC(C)=CCC[C@@H](C)CCO [(R)-Citronellol]
[1]
  Lipase (RFU): 691.7924 RFU

## Nc1ncnc2c1ncn2[C@@H]1O[C@H](CO)[C@@H](OP(=O)(O)O)[C@H]1O [Adenosine-3′-monophosphate]
[5]
  Lipase (RFU): 1177.204 RFU

## C[C@]12CCC(=O)C=C1C=C[C@@H]1[C@@H]2CC[C@@]2(C)[C@H]1CC[C@@]21CCC(=O)O1 [Canrenone]
[1]
  Lipase (RFU): 1049.986 RFU

## COc1ccc(-c2cc(=O)c3c(O)c(OC)c(O)c(OC)c3o2)cc1 [Nevadensin]
[1]
  Lipase (RFU): 1275.947 RFU

## OC[C@H]1O[C@H](O[C@]2(CCl)O[C@H](CCl)[C@@H](O)[C@@H]2O)[C@H](O)[C@@H](O)[C@H]1Cl [Sucralose]
[3]
  Lipase (RFU): 919.3825 RFU

## O=c1ccn([C@@H]2O[C@H](COP(=O)(O)O)[C@@H](O)[C@H]2O)c(=O)[nH]1 [Uridine-5′-monophosphate]
[5]
  Lipase (RFU): 946.5748 RFU

## C=C(C)[C@@H]1CC[C@]2(CO)CC[C@]3(C)[C@H](CC[C@@H]4[C@@]5(C)CC[C@H](O)C(C)(C)[C@@H]5CC[C@]43C)[C@@H]12 [Betulin]
[1]
  Lipase (RFU): 1030.78 RFU

## O=C(CO)N[C@H]1[C@H]([C@H](O)[C@H](O)CO)OC(O)(C(=O)O)C[C@@H]1O (stereo partly shown) [N-Glycolylneuraminic acid]
[2]
  Lipase (RFU): 1126.23 RFU

## CCOC(=O)CC(O)(CC(=O)OCC)C(=O)OCC [Triethyl citrate]
[3]
  Lipase (RFU): 1099.976 RFU

## CC(C)CC(=O)NCC(=O)O [N-Isovaleroylglycine]
[1]
  Lipase (RFU): 940.2255 RFU

## O=C(O)c1ccc(C(=O)O)o1 [2,5-Furandicarboxylic acid]
[1]
  Lipase (RFU): 840.5751 RFU

## CSC[C@H](N)C(=O)O [S-Methyl-L-Cysteine]
[5]
  Lipase (RFU): 642.8406 RFU

## O=C(O)c1ccccc1O [2-Hydroxy Benzoic Acid]
[4]
  Lipase (RFU): 894.0225 RFU

## O=C(O)C=Cc1ccccc1O [2-Hydroxycinnamic acid]
[3]
  Lipase (RFU): 929.9843 RFU

## COc1cccc(OC)c1 [1,3-Dimethoxybenzene]
[3]
  Lipase (RFU): 847.2749 RFU

## Cc1cn([C@H]2C[C@H](OP(=O)(O)O)[C@@H](CO)O2)c(=O)[nH]c1=O [Thymidine-3′-monophosphate]
[5]
  Lipase (RFU): 989.4086 RFU

## Cc1ncc(CO)c(CN)c1O.Cl.Cl [Pyridoxylamine (dihydrochloride)]
[1]
  Lipase (RFU): 1154.431 RFU

## COc1cc([C@H]2c3cc(O)c(OC)cc3C[C@@H](CO)[C@@H]2CO)ccc1O [(+)-Isolariciresinol]
[2]
  Lipase (RFU): 830.6093 RFU

## O=C(O)/C=C\C(=O)O [Maleic Acid]
[2]
  Lipase (RFU): 614.1141 RFU

## O=C1c2c(O)cc(O)cc2O[C@H](c2ccc(O)cc2)[C@H]1O [Dihydrokaempferol]
[1]
  Lipase (RFU): 748.4559 RFU

## CCCCCCCCC=O [Nonanal]
[3]
  Lipase (RFU): 935.1292 RFU
[1]
  Lipase (RFU): 941.7523 RFU

## N[C@@H](CCO)C(=O)O [L-Homoserine]
[4]
  Lipase (RFU): 860.3561 RFU
[2]
  Lipase (RFU): 1281.161 RFU

## Cc1ccc(CO)o1 [5-Methyl-2-furanmethanol]
[3]
  Lipase (RFU): 971.233 RFU

## CCCCCCCCCCCCCCCC(=O)O[C@@H]1CC(C)=C(/C=C/C(C)=C/C=C/C(C)=C/C=C/C=C(C)/C=C/C=C(C)/C=C/C2=C(C)C[C@@H](OC(=O)CCCCCCCCCCCCCCC)CC2(C)C)C(C)(C)C1 [Zeaxanthin dipalmitate]
[2]
  Lipase (RFU): 873.6162 RFU

## O=C(C=Cc1ccccc1)OCc1ccccc1 [Benzyl cinnamate]
[3]
  Lipase (RFU): 969.7584 RFU
[2]
  Lipase (RFU): 938.2773 RFU

## CC(=O)CO [Hydroxyacetone]
[1]
  Lipase (RFU): 837.357 RFU

## O=c1[nH]cnc2nc[nH]c12 [Hypoxanthine]
[6]
  Lipase (RFU): 958.2355 RFU

## COc1cc(/C=C/C(=O)NCCc2ccc(O)cc2)ccc1O [N-trans-Feruloyltyramine]
[1]
  Lipase (RFU): 1056.278 RFU

## Nc1ncnc2c1ncn2[C@H]1C[C@H](O)[C@@H](COP(=O)([O-])OP(=O)([O-])OP(=O)([O-])O)O1.[Na+].[Na+].[Na+]
[1]
  Lipase (RFU): 787.6266 RFU

## CCCCCCCCCCCC(C)=O [Compound 2-Tridecanone, 2-Tridecanone]
[1]
  Lipase (RFU): 1003.44 RFU

## Nc1cc[nH]c(=O)n1 [Cytosine]
[6]
  Lipase (RFU): 991.9282 RFU

## N[C@@H](CCC(=O)N[C@@H](CS)C(=O)O)C(=O)O [Gamma-glutamylcysteine]
[2]
  Lipase (RFU): 653.5504 RFU

## OC[C@H]1O[C@@H](Oc2cc(O)cc(/C=C/c3ccc(O)cc3)c2)[C@H](O)[C@@H](O)[C@@H]1O [Polydatin]
[1]
  Lipase (RFU): 998.3778 RFU

## C/C=C/c1ccc(OC)cc1 [Anethole]
[1]
  Lipase (RFU): 829.3991 RFU

## CNCc1ccccc1 [N-Methylbenzylamine]
[1]
  Lipase (RFU): 1178.371 RFU

## CC(=O)OC(C)(C)C1CC=C(C)CC1 (stereo not drawn) [α-Terpinyl acetate]
[3]
  Lipase (RFU): 820.1053 RFU

## O=Cc1c[nH]c2ccccc12 [Indole-3-carboxaldehyde]
[1]
  Lipase (RFU): 925.3793 RFU

## O=c1ccn([C@@H]2O[C@H](CO)[C@@H](O)[C@H]2O)c(=O)[nH]1 [Uridine]
[7]
  Lipase (RFU): 818.9178 RFU
[6]
  Lipase (RFU): 858.0629 RFU
[1]
  Lipase (RFU): 908.1209 RFU

## CC1(C)S[C@@H]2[C@H](NC(=O)[C@H](N)c3ccccc3)C(=O)N2[C@H]1C(=O)O [Ampicillin]
[2]
  Lipase (RFU): 986.5094 RFU

## O=c1ccn([C@@H]2O[C@H](CO)[C@@H](O)[C@H]2OP(=O)(O)O)c(=O)[nH]1 [Uridine-2′-monophosphate]
[5]
  Lipase (RFU): 909.0878 RFU

## O=C(O)CO [Glycolic Acid]
[7]
  Lipase (RFU): 806.0101 RFU

## CC(C)=CCC/C(C)=C/C=O [Citral]
[3]
  Lipase (RFU): 1048.78 RFU

## Nc1ccc(S(=O)(=O)O)cc1 [p-Amino Benzene Sulfonic Acid]
[5]
  Lipase (RFU): 861.3127 RFU

## COC(=O)CC(C)=O [Methyl acetylacetate]
[1]
  Lipase (RFU): 884.646 RFU

## COC(=O)C(O)CC(C)C (stereo not shown) [Methyl 2-hydroxy-4-methylvalerate]
[3]
  Lipase (RFU): 1043.833 RFU

## O=C(O)C(O)C(O)C(=O)O (stereo not shown) [Tartaric acid (disodium dihydrate)]
[3]
  Lipase (RFU): 855.0017 RFU
[2]
  Lipase (RFU): 912.6321 RFU

## CC1=C(/C=C/C(C)=C/C=C/C(C)=C/C=C/C=C(C)/C=C/C=C(C)/C=C/C2=C(C)CCCC2(C)C)C(C)(C)CCC1 [β-Carotene]
Table 7, single compound 20 mg/mL, human milk stored 1 week at −20° C., inhibited if RFU <400
  Lipase (RFU): 816.493 RFU

## COc1cc(O)c(CC=C(C)C)c2c1C(=O)C[C@@H](c1ccc(O)cc1)O2 [(2S)-Isoxanthohumol]
[1]
  Lipase (RFU): 876.9959 RFU

## CC(=O)c1ccccc1 [Acetophenone]
[3]
  Lipase (RFU): 1002.631 RFU
[1]
  Lipase (RFU): 830.3825 RFU

## N[C@@H](CS)C(=O)O [L-Cysteine (hydrochloride hydrate)]
[3]
  Lipase (RFU): 1046.57 RFU

## COc1ccccc1C [Compound 2-Methylanisole, 2-Methylanisole]
[3]
  Lipase (RFU): 800.3148 RFU

## CC1=NCCc2c1[nH]c1cc(O)ccc21.Cl [Harmalol (hydrochloride)]
[1]
  Lipase (RFU): 757.8125 RFU

## Nc1nc2ncc(CNc3ccc(C(=O)N[C@@H](CCC(=O)O)C(=O)O)cc3)nc2c(=O)[nH]1 [Folic Acid]
[6]
  Lipase (RFU): 635.4394 RFU
[3]
  Lipase (RFU): 1089.591 RFU

## COc1cc(C(C)C)ccc1C [Carvacrol methyl ether]
[1]
  Lipase (RFU): 880.5361 RFU

Where a name gives a salt, the structure may show the parent alone.
